{
  "source": "PubChem BioAssay AID1479",
  "about": "(National Center for Advancing Translational Sciences (NCATS), 2009)",
  "experiment": "Total Fluorescence Counterscreen for Inhibitors of the Interaction of Thyroid Hormone Receptor and Steroid Receptor Coregulator 2",
  "conditions": "TRb/SRC2 Texas Red total fluorescence interference",
  "key": {"[1]": {"conditions": "at 106 µM (top of the series) unless noted"}},
  "note": "The entries are a selection whose mix differs from that of the whole data set. Some structures show a salt or complex split into parts, the way the source records it. Calls of active or inactive are those of the source. Calls follow the shape of the dose curve; as a rule, active = well fitted curve in either direction with a large enough effect; inconclusive = small, poorly fitted or top-dose-only effect; inactive = flat fitted curve, though single readings scatter. % is scaled to controls: 0 for no effect and ±100 for the full control effect.",
  "data": [
    {"smiles": "CN(C)c1cccc(C(=O)NCC2(N3CCCCC3)CCCCC2)c1", "values": [
      {"measurement": "fluorescence change, negative = quenching", "setting": "[1]", "result": "inactive: -1.51%"}
    ]},
    {"smiles": "COc1ccc(CN(CCCl)CCCl)cc1Cl", "values": [
      {"measurement": "fluorescence change, negative = quenching", "setting": "[1]", "result": "inactive: 2.88% [at 53 µM]"}
    ]},
    {"smiles": "CC(C)c1ccc(NC2CCN(C(=O)OC(C)(C)C)CC2)cc1", "values": [
      {"measurement": "fluorescence change, negative = quenching", "setting": "[1]", "result": "inactive: -8.62%"}
    ]},
    {"smiles": "CCOP(=O)(Cl)Cl", "values": [
      {"measurement": "fluorescence change, negative = quenching", "setting": "at 106 µM (top of the series)", "result": "inactive: -1.95%"},
      {"measurement": "fluorescence change, negative = quenching", "setting": "at 201 µM (top of the series)", "result": "inactive: -1.42%"}
    ]},
    {"smiles": "COc1ccc2c(c1O)-c1c(O)c(OC)cc3c1[C@H](C2)[N+](C)(C)CC3.O=[N+]([O-])c1cc([N+](=O)[O-])c([O-])c([N+](=O)[O-])c1[O-]", "values": [
      {"measurement": "fluorescence change, negative = quenching", "setting": "[1]", "result": "inactive: -2.55%"}
    ]},
    {"smiles": "O=C(OC1CN2CCC1CC2)c1ccc([N+](=O)[O-])cc1", "note": "(centres undefined)", "values": [
      {"measurement": "fluorescence change, negative = quenching", "setting": "[1]", "result": "inactive: -5.53%"}
    ]},
    {"smiles": "CCCCOc1ccccc1C(=O)NCC1(N2CCOCC2)CCCCC1", "values": [
      {"measurement": "fluorescence change, negative = quenching", "setting": "[1]", "result": "inactive: -5.26%"}
    ]},
    {"smiles": "O=C(NCC1(N2CCCCC2)CCCCC1)c1cccc([N+](=O)[O-])c1", "values": [
      {"measurement": "fluorescence change, negative = quenching", "setting": "[1]", "result": "inactive: 0.118%"}
    ]},
    {"smiles": "CCOc1ccc(C(=O)NCC2(N3CCOCC3)CCCCC2)cc1", "values": [
      {"measurement": "fluorescence change, negative = quenching", "setting": "[1]", "result": "inactive: 0.489%"}
    ]},
    {"smiles": "N#CC1(Nc2ccccc2)CCN(CCc2ccccc2)CC1", "values": [
      {"measurement": "fluorescence change, negative = quenching", "setting": "[1]", "result": "inactive: -0.798%"}
    ]},
    {"smiles": "CCCOc1cccc(C(=O)NCC2(N3CCOCC3)CCCCC2)c1", "values": [
      {"measurement": "fluorescence change, negative = quenching", "setting": "[1]", "result": "inactive: -32.4%"}
    ]},
    {"smiles": "O=[N+]([O-])c1cc([N+](=O)[O-])c(NCC2CCS(=O)(=O)C2)c([N+](=O)[O-])c1", "note": "(centres undefined)", "values": [
      {"measurement": "fluorescence change, negative = quenching", "setting": "[1]", "result": "inactive: -8.94%"}
    ]},
    {"smiles": "CN1CCN(CCOC(=O)C(O)(c2ccccc2)c2ccccc2)CC1", "values": [
      {"measurement": "fluorescence change, negative = quenching", "setting": "[1]", "result": "inactive: -0.752%"}
    ]},
    {"smiles": "COc1ccc(NC2CCN(C(=O)OC(C)(C)C)CC2)cc1", "values": [
      {"measurement": "fluorescence change, negative = quenching", "setting": "[1]", "result": "inactive: 0.0405%"}
    ]},
    {"smiles": "O=C(NCC1(N2CCOCC2)CCCCC1)c1cc(=O)[nH]c2ccccc12", "values": [
      {"measurement": "fluorescence change, negative = quenching", "setting": "[1]", "result": "inactive: 0.577%"}
    ]},
    {"smiles": "CCOc1ccc(C)cc1CN(CCCl)CCCl", "values": [
      {"measurement": "fluorescence change, negative = quenching", "setting": "[1]", "result": "inactive: 0.381%"}
    ]},
    {"smiles": "COc1ccc(NC2CCN(CCc3ccccc3)CC2)c(OC)c1", "values": [
      {"measurement": "fluorescence change, negative = quenching", "setting": "[1]", "result": "inactive: 1.5%"}
    ]},
    {"smiles": "O=[N+]([O-])c1ccccc1[N+](=O)[O-]", "values": [
      {"measurement": "fluorescence change, negative = quenching", "setting": "[1]", "result": "inactive: -1.72% [at 201 µM]"}
    ]},
    {"smiles": "COc1ccccc1C(=O)NCC1(N2CCOCC2)CCCCC1", "values": [
      {"measurement": "fluorescence change, negative = quenching", "setting": "[1]", "result": "inactive: 0.923%"}
    ]},
    {"smiles": "Cc1ccc(OCC(C)C)c(CN(CCCl)CCCl)c1", "values": [
      {"measurement": "fluorescence change, negative = quenching", "setting": "[1]", "result": "inactive: -1.15%"}
    ]},
    {"smiles": "COc1ccc(C(=O)NCC2(N3CCCCC3)CCCCC2)c(OC)c1OC", "values": [
      {"measurement": "fluorescence change, negative = quenching", "setting": "[1]", "result": "inactive: -7.43%"}
    ]},
    {"smiles": "O=C(NCC1(N2CCOCC2)CCCCC1)c1cc2ccccc2o1", "values": [
      {"measurement": "fluorescence change, negative = quenching", "setting": "[1]", "result": "inactive: -0.108%"}
    ]},
    {"smiles": "CCOC(=O)N1CCC(Nc2ccc(OC)cc2)CC1", "values": [
      {"measurement": "fluorescence change, negative = quenching", "setting": "[1]", "result": "inactive: 0.36%"}
    ]},
    {"smiles": "N#CC1(Nc2ccccc2)CCN(Cc2ccccc2)CC1", "values": [
      {"measurement": "fluorescence change, negative = quenching", "setting": "[1]", "result": "inactive: -2.2%"}
    ]},
    {"smiles": "O=C(OC1CN2CCC1CC2)C1c2ccccc2Oc2ccccc21", "note": "(centres undefined)", "values": [
      {"measurement": "fluorescence change, negative = quenching", "setting": "[1]", "result": "inactive: -7.21%"}
    ]},
    {"smiles": "CCOc1ncccc1C(=O)NCC1(N2CCOCC2)CCCCC1", "values": [
      {"measurement": "fluorescence change, negative = quenching", "setting": "[1]", "result": "inactive: 0.533%"}
    ]},
    {"smiles": "CC(C)(C)OC(=O)N1CCC(Nc2ccccc2)CC1", "values": [
      {"measurement": "fluorescence change, negative = quenching", "setting": "[1]", "result": "inactive: -0.383%"}
    ]},
    {"smiles": "CCC(CO)(C(=O)OC1CN2CCC1CC2)c1ccccc1", "note": "(centres undefined)", "values": [
      {"measurement": "fluorescence change, negative = quenching", "setting": "[1]", "result": "inactive: -1.13%"}
    ]},
    {"smiles": "COc1cc(C(=O)NCC2(N3CCOCC3)CCCCC2)cc(OC)c1OC", "values": [
      {"measurement": "fluorescence change, negative = quenching", "setting": "[1]", "result": "inactive: -1.28%"}
    ]},
    {"smiles": "COc1cc(OC)cc(C(=O)NCC2(N3CCOCC3)CCCCC2)c1", "values": [
      {"measurement": "fluorescence change, negative = quenching", "setting": "[1]", "result": "inactive: 3.36%"}
    ]},
    {"smiles": "CCCOc1ccc(C)cc1CN(CCCl)CCCl", "values": [
      {"measurement": "fluorescence change, negative = quenching", "setting": "[1]", "result": "inactive: 0.412%"}
    ]},
    {"smiles": "CN(C)C1(CNC(=O)c2ccc(C(C)(C)C)cc2)CCCCC1", "values": [
      {"measurement": "fluorescence change, negative = quenching", "setting": "[1]", "result": "inactive: -0.539%"}
    ]},
    {"smiles": "Fc1ccccc1NC1CCN(Cc2ccccc2)CC1", "values": [
      {"measurement": "fluorescence change, negative = quenching", "setting": "[1]", "result": "inactive: -2.44%"}
    ]},
    {"smiles": "CCN1CCC(Nc2cccc(F)c2)CC1", "values": [
      {"measurement": "fluorescence change, negative = quenching", "setting": "[1]", "result": "inactive: -4.46%"}
    ]},
    {"smiles": "CN(C)c1ccc(C(=O)NCC2(N3CCCCC3)CCCCC2)cc1", "values": [
      {"measurement": "fluorescence change, negative = quenching", "setting": "[1]", "result": "inactive: -0.297%"}
    ]},
    {"smiles": "CC(C)(C)c1ccc(C(=O)NCC2(N3CCOCC3)CCCCC2)cc1", "values": [
      {"measurement": "fluorescence change, negative = quenching", "setting": "[1]", "result": "inactive: 3.77%"}
    ]},
    {"smiles": "Cc1ccccc1C(=O)NCC1(N(C)C)CCCCC1", "values": [
      {"measurement": "fluorescence change, negative = quenching", "setting": "[1]", "result": "inactive: -9.91%"}
    ]},
    {"smiles": "O=C(NCC1(N2CCOCC2)CCCCC1)c1ccc([N+](=O)[O-])cc1", "values": [
      {"measurement": "fluorescence change, negative = quenching", "setting": "[1]", "result": "inactive: -10.4%"}
    ]},
    {"smiles": "N#Cc1ccc(C(=O)NCC2(N3CCCCC3)CCCCC2)cc1", "values": [
      {"measurement": "fluorescence change, negative = quenching", "setting": "[1]", "result": "inactive: -0.151%"}
    ]},
    {"smiles": "O=C(NCC1(N2CCOCC2)CCCCC1)c1ccccc1[N+](=O)[O-]", "values": [
      {"measurement": "fluorescence change, negative = quenching", "setting": "[1]", "result": "inactive: 3.06%"}
    ]},
    {"smiles": "CCOC(=O)C(CC)C1=NC(C)(C)Cc2ccccc21.O=[N+]([O-])c1cc([N+](=O)[O-])c(O)c([N+](=O)[O-])c1", "note": "(centres undefined)", "values": [
      {"measurement": "fluorescence change, negative = quenching", "setting": "[1]", "result": "inactive: 0.0345%"}
    ]},
    {"smiles": "O=C(NCC1(N2CCOCC2)CCCCC1)c1ccccc1", "values": [
      {"measurement": "fluorescence change, negative = quenching", "setting": "[1]", "result": "inactive: -2.86%"}
    ]},
    {"smiles": "c1ccc(CN2CCC(Nc3ccccc3)CC2)cc1", "values": [
      {"measurement": "fluorescence change, negative = quenching", "setting": "[1]", "result": "inactive: -4.38%"}
    ]},
    {"smiles": "ClCCOP(OCCCl)OCCCl", "values": [
      {"measurement": "fluorescence change, negative = quenching", "setting": "[1]", "result": "inactive: -0.728%"}
    ]},
    {"smiles": "COc1ccc(C(=O)NCC2(N3CCOCC3)CCCCC2)cc1OC", "values": [
      {"measurement": "fluorescence change, negative = quenching", "setting": "[1]", "result": "inactive: -0.0519%"}
    ]},
    {"smiles": "N/C(=N\\O)c1c(N)no[n+]1[O-]", "values": [
      {"measurement": "fluorescence change, negative = quenching", "setting": "[1]", "result": "inactive: -0.549%"}
    ]},
    {"smiles": "O=C(O)c1cccc(Nc2c([N+](=O)[O-])cc([N+](=O)[O-])cc2[N+](=O)[O-])c1", "values": [
      {"measurement": "fluorescence change, negative = quenching", "setting": "[1]", "result": "inactive: -2.96%"}
    ]},
    {"smiles": "O=C(OC1CN2CCC1CC2)C1c2ccccc2C=Cc2ccccc21", "note": "(centres undefined)", "values": [
      {"measurement": "fluorescence change, negative = quenching", "setting": "[1]", "result": "inactive: 0.0786%"}
    ]}
  ]
}
